Measurements published in patent US4552882A, “7-(1-Pyrrolyl) derivatives of 1-ethyl-1,4-dihydro-4-oxoquinoline-3-carboxylic acids and 1-ethyl-1,4-dihydro-4-oxo-1,8-naphthyridine-3-carboxylic acids and their use as antimicrobial agents” (Provesan, SA, priority 1983, dated 1985).

Assay: in vivo
Conditions: mouse, ip
Description: To determine this toxicity, C.F.L.P. strain albino mice of both sexes, weighing between 19 and 25 grams, have been used as experimental animals. After an 18 hour fast period with water "ad libitum" the derivatives which are the subjects of the present invention are administered intraperitoneally in 5% suspension in gum arabic. The volume of suspension administered has in all cases been 0.4 ml/20 grams (20 ml/kg), changing the concentration of the suspension according to the dose administered.
One hour after the administration of the derivatives, the animals are supplied with Panlab standard rat-mouse feed. The period of observation of mortality has been 7 days.

Compound CCn1cc(C(=O)O)c(=O)c2cnc(N3CCNCC3)nc21 [Pipemidic acid, reference compound] has an LD50 at 168 h greater than 1600 mg/kg.
